Measured values reported in PMC5731819, “Single-molecule studies contrast ordered DNA replication with stochastic translesion synthesis” (eLife, 2017).
Residue numbers refer to the chain shown, from its start.

T1: E. coli DNA sliding clamp β (E. coli, UniProt P0A988 1-366, maleimide-Atto647N on a single cysteine residue (position not given))
T1 construct: DNA polymerase III subunit beta (sliding clamp β), E. coli, gene dnaN; also called β-clamp; β2 clamp; not shown: His tag (from the vector pET28a)
T1 sequence (looked up): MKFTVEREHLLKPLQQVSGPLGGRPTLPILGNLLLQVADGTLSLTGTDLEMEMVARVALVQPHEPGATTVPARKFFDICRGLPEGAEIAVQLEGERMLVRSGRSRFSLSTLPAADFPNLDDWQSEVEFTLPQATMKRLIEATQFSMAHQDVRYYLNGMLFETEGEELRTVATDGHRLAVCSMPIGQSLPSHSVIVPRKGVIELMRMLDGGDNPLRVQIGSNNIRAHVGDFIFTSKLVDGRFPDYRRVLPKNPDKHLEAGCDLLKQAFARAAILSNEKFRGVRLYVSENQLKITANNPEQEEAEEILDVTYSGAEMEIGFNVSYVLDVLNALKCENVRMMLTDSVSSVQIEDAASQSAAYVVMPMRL

B1: Pol IIIcore with a weakened β-binding motif in the ε subunit, ε (β-) (complex, E. coli)
chain 1: MSEPRFVHLRVHSDYSMIDGLAKTAPLVKKAAALGMPALAITDFTNLCGLVKFYGAGHGAGIKPIVGADFNVQCDLLGDELTHLTVLAANNTGYQNLTLLISKAYQRGYGAAGPIIDRDWLIELNEGLILLSGGRMGDVGRSLLRGNSALVDECVAFYEEHFPDRYFLELIRTGRPDEESYLHAAVELAEARGLPVVATNDVRFIDSSDFDAHEIRVAIHDGFTLDDPKRPRNYSPQQYMRSEEEMCELFADIPEALANTVEIAKRCNVTVRLGEYFLPQFPTGDMSTEDYLVKRAKEGLEERLAFLFPDEEERLKRRPEYDERLETELQVINQMGFPGYFLIVMEFIQWSKDNGVPVGPGRGSGAGSLVAYALKITDLDPLEFDLLFERFLNPERVSMPDFDVDFCMEKRDQVIEHVADMYGRDAVSQIITFGTMAAKAVIRDVGRVLGHPYGFVDRISKLIPPDPGMTLAKAFEAEPQLPEIYEADEEVKALIDMARKLEGVTRNAGKHAGGVVIAPTKITDFAPLYCDEEGKHPVTQFDKSDVEYAGLVKFDFLGLRTLTIINWALEMINKRRAKNGEPPLDIAAIPLDDKKSFDMLQRSETTAVFQLESRGMKDLIKRLQPDCFEDMIALVALFRPGPLQSGMVDNFIDRKHGREEISYPDVQWQHESLKPVLEPTYGIILYQEQVMQIAQVLSGYTLGGADMLRRAMGKKKPEEMAKQRSVFAEGAEKNGINAELAMKIFDLVEKFAGYGFNKSHSAAYALVSYQTLWLKAHYPAEFMAAVMTADMDNTEKVVGLVDECWRMGLKILPPDINSGLYHFHVNDDGEIVYGIGAIKGVGEGPIEAIIEARNKGGYFRELFDLCARTDTKKLNRRVLEKLIMSGAFDRLGPHRAALMNSLGDALKAADQHAKAEAIGQADMFGVLAEEPEQIEQSYASCQPWPEQVVLDGERETLGLYLTGHPINQYLKEIERYVGGVRLKDMHPTERGKVITAAGLVVAARVMVTKRGNRIGICTLDDRSGRLEVMLFTDALDKYQQLLEKDRILIVSGQVSFDDFSGGLKMTAREVMDIDEAREKYARGLAISLTDRQIDDQLLNRLRQSLEPHRSGTIPVHLYYQRADARARLRFGATWRVSPSDRLLNDLRGLIGSEQVELEFD
chain 2: MSTAITRQIVLDTETTGMNQIGAHYEGHKIIEIGAVEVVNRRLTGNNFHVYLKPDRLVDPEAFGVHGIADEFLLDKPTFAEVADEFMDYIRGAELVIHNAAFDIGFMDYEFSLLKRDIPKTNTFCKVTDSLAVARKMFPGKRNSLDALCARYEIDNSKRTLHGALLDAQILAEVYLAMTGGQTSAAAAMEGETQQQQGEATIQRIVRQASKLRVVFATDEEIAAHEARLDLVQKKGGSCLWRA
chain 3: MLKNLAKLDQTEMDKVNVDLAAAGVAFKERYNMPVIAEAVEREQPEHLRSWFRERLIAHRLASVNLSRLPYEPKLK
modifications: Atto 488 (CoA-linked) conjugated by Sfp to the N-terminal Ybbr tag
notes: DNA polymerase III subunit alpha (Pol IIIα), E. coli, gene dnaE; DNA polymerase III subunit theta (θ), E. coli, gene holE; source: recombinant subunits purified; ε mutant by site directed mutagenesis; copies: + +
B2: Pol IIIcore with an enhanced β-binding motif in the ε subunit, ε (β+) (complex, E. coli)
chain 1: B1 chain 1
chain 2: B1 chain 2 with A185L, A186P, A187L
chain 3: B1 chain 3
modifications: Atto 488 (CoA-linked) conjugated by Sfp to the N-terminal Ybbr tag
notes: as for B1

Biological target: T1, E. coli DNA sliding clamp β
Experiment: co-localization single-molecule spectroscopy (CoSMoS, TIRF); labelled Pol IIIcore (30 nM) on β-clamp loaded on surface-held matched DNA, no dNTPs; 23 °C, 20 mM Tris-HCl pH 7.5, 50 mM potassium glutamate, 8 mM MgCl2
Settings: both partners purified

Row | Binder | lifetime on clamp-DNA [s]
1 | B1 | 7.9
2 | B2 | 40.2
